Bounds are passed on as bounds.

Protein sequences, listed by entry. Tags and fused reporters are not part of them.
UniProt P41143, whole entry: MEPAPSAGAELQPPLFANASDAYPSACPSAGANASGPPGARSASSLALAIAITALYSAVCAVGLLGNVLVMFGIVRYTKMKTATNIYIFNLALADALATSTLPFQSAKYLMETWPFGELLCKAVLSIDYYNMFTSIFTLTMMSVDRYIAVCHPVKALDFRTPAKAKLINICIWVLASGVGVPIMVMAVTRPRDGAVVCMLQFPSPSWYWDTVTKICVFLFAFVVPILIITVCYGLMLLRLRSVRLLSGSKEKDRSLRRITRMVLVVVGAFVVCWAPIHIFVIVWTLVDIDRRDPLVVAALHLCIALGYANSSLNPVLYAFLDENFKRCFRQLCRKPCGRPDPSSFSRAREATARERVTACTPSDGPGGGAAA
UniProt P41145, whole entry: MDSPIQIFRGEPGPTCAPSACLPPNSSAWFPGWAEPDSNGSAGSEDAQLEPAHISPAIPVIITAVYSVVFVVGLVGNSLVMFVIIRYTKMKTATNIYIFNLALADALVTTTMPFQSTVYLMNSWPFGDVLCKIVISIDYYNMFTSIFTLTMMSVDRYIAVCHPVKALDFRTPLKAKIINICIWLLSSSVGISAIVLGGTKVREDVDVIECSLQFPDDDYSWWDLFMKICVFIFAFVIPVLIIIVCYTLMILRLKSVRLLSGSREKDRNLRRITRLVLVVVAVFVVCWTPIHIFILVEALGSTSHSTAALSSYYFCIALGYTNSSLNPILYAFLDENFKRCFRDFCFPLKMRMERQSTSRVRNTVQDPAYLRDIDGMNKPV

The target in test [1] is Delta-type opioid receptor (Homo sapiens, UniProt P41143). Kind of test: Inhibition of [3H]naltrindole binding to human Opioid receptor delta 1.
Test [2] deals with Kappa-type opioid receptor (Homo sapiens, UniProt P41145). Briefly: Inhibition of [3H]U-69593 binding to human Opioid receptor kappa 1.

Take `CC(C)CCC(C)N1CCC(N2c3ccccc3NS2(=O)=O)CC1` (configuration not stated): the Ki in test [1] and in test [2] was greater than 2000 nM throughout.

For the origin of these results see ChEMBL document CHEMBL1137888, “1,3-Dihydro-2,1,3-benzothiadiazol-2,2-diones and 3,4-dihydro-1H-2,1,3-benzothidiazin-2,2-diones as ligands for the NOP receptor” (2004).
